Assay results reported in US20040220260A1, “Use of mono-or di-esters of cinnamic acid or of one of its derivatives and vitamin C, as donor of NO” (L'OREAL S.A., priority 2003, published 2004).

The chains behind the UniProt entries cited, without tags or fusion partners.
UniProt P35228, whole entry: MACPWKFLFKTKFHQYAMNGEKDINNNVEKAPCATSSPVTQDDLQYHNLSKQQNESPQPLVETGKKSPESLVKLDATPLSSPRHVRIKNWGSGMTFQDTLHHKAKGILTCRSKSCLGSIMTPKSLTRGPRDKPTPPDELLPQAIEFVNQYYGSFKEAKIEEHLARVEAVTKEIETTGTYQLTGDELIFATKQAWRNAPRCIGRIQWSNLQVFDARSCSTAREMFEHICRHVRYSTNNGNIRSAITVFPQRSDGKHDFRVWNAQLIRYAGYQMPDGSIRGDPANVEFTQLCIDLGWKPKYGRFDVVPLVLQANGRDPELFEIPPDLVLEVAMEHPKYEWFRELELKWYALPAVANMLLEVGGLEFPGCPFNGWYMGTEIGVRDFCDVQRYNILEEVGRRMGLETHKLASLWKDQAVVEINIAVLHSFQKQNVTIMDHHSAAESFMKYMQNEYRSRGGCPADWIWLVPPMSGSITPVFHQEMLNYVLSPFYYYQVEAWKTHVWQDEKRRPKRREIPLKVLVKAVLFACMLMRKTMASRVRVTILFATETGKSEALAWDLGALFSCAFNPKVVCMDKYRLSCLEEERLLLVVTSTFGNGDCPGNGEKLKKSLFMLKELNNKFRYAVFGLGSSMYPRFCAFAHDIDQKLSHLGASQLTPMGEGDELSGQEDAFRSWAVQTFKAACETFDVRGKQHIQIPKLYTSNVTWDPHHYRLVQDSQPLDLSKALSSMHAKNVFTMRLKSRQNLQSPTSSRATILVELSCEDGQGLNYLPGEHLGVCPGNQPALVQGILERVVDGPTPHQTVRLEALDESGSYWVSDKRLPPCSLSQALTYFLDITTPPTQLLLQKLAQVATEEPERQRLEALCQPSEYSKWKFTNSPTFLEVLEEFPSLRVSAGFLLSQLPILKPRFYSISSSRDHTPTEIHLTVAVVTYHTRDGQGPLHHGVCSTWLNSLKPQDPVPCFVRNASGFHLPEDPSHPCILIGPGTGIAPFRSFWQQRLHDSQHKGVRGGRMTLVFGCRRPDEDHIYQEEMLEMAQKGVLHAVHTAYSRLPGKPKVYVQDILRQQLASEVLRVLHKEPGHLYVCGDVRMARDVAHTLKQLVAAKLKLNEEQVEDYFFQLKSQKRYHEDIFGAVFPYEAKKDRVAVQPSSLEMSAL

Target: T1, inducible NO synthase (NOS2) (Homo sapiens, UniProt P35228)
T1 construct: endogenous in cells; host or cells: normal human keratinocytes (primary culture), induced with interferon-γ and interleukin 1-β
Experiment: screening test of the modulation of induction of NOS2 by normal human keratinocytes (nitrite/nitrate measurement)
Type: cell-based
Conditions: control compounds at 200 μm, NOS2 induced by cytokines
Protocol: The activity of ascorbyl 2-O-cinnamate on the inducible NO synthase was evaluated in the assay described by Heck et al. (J.B.C., vol. 267, No. 30, 21277-21280, 25 Oct. 1992), a screening test of the modulation of induction of NOS2 by normal human keratinocytes. The objective of this test is, briefly, to evaluate the concentration of nitrate and nitrite after stimulation of the NO-synthase 2.
The test is carried out on a culture of normal human keratinocytes, derived from samples taken. The induction of the inducible NO synthase (NOS2) was caused by the addition of a combination of several cytokines to the culture medium. The product tested was applied at three concentrations varying from […] to 1000 μM.
The product tested was classed in one of the following two categories: inhibitor (I) or donor (D) of NO (nitric oxide) according to its capacity to diminish or increase, respectively, the quantity of nitrites and nitrates produced compared to the control signal […].
The following controls were introduced in the test: […]
In order to determine the activity of the test product the quantity of stable NO reaction products (nitrites and nitrates) is measured with the aid of the “nitric calorimetric assay” kit sold by the Boehringer company under catalogue number 1756.28. […]

Structure (SMILES) | % inhibition
CNC(=N)NCCC[C@H](N)C(=O)O [B, N^9-monomethyl-L-arginine, reference compound] | 100%
CNC(=N)NCCC[C@H](N)C(=O)O [C, N^9-monomethyl-L-arginine, reference compound] | 0%
